Sequences of proteins named here, by UniProt entry; tags and fusion partners are left off.
UniProt Q99250, whole entry: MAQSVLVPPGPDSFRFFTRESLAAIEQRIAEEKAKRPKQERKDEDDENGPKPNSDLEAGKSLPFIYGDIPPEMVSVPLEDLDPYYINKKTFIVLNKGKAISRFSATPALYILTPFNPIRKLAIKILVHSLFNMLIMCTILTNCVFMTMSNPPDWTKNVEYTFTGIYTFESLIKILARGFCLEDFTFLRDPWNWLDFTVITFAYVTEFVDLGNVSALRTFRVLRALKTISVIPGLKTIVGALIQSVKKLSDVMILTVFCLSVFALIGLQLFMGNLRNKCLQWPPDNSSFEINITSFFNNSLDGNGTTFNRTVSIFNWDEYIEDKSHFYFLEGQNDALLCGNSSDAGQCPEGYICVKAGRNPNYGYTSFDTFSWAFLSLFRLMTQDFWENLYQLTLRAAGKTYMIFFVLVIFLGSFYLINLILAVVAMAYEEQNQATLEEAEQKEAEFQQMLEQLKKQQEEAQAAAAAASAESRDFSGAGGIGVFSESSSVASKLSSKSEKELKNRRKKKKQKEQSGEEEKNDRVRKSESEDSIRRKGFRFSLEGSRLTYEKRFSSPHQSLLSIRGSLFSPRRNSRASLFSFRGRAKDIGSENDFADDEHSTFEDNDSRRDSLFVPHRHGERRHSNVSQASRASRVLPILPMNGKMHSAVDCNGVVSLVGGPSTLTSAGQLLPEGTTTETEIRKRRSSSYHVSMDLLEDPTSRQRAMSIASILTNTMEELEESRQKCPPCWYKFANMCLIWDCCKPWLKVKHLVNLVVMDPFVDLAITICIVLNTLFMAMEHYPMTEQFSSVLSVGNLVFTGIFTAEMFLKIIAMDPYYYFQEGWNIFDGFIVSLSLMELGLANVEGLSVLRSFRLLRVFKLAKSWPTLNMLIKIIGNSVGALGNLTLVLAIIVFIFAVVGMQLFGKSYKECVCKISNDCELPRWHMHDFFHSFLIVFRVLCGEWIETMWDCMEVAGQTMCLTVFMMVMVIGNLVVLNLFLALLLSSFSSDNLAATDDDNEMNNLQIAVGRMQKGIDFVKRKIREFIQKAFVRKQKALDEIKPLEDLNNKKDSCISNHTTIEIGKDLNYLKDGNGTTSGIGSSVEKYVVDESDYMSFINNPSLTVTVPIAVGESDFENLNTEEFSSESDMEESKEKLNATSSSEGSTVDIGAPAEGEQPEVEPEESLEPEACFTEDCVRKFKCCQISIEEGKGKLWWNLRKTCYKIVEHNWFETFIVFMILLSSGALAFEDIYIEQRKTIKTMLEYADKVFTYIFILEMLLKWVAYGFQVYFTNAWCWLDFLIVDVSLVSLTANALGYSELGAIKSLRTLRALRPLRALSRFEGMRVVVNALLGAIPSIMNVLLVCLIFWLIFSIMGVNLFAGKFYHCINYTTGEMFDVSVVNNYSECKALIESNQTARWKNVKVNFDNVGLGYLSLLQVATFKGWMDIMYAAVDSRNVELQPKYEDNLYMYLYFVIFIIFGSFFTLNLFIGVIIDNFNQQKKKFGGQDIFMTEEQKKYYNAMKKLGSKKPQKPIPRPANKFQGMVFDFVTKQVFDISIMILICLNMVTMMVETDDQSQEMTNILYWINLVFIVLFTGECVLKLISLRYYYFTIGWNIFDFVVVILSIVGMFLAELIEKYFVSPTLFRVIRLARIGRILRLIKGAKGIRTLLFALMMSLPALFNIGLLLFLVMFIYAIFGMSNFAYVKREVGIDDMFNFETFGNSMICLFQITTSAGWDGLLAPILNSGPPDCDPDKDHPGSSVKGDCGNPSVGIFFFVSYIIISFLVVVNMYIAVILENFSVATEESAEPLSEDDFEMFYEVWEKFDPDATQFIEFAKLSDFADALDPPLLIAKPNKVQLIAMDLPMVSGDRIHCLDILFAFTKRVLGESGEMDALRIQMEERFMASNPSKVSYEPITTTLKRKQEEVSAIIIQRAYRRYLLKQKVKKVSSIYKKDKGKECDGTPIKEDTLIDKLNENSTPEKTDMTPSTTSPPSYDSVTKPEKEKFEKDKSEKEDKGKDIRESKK
UniProt Q14524, whole entry: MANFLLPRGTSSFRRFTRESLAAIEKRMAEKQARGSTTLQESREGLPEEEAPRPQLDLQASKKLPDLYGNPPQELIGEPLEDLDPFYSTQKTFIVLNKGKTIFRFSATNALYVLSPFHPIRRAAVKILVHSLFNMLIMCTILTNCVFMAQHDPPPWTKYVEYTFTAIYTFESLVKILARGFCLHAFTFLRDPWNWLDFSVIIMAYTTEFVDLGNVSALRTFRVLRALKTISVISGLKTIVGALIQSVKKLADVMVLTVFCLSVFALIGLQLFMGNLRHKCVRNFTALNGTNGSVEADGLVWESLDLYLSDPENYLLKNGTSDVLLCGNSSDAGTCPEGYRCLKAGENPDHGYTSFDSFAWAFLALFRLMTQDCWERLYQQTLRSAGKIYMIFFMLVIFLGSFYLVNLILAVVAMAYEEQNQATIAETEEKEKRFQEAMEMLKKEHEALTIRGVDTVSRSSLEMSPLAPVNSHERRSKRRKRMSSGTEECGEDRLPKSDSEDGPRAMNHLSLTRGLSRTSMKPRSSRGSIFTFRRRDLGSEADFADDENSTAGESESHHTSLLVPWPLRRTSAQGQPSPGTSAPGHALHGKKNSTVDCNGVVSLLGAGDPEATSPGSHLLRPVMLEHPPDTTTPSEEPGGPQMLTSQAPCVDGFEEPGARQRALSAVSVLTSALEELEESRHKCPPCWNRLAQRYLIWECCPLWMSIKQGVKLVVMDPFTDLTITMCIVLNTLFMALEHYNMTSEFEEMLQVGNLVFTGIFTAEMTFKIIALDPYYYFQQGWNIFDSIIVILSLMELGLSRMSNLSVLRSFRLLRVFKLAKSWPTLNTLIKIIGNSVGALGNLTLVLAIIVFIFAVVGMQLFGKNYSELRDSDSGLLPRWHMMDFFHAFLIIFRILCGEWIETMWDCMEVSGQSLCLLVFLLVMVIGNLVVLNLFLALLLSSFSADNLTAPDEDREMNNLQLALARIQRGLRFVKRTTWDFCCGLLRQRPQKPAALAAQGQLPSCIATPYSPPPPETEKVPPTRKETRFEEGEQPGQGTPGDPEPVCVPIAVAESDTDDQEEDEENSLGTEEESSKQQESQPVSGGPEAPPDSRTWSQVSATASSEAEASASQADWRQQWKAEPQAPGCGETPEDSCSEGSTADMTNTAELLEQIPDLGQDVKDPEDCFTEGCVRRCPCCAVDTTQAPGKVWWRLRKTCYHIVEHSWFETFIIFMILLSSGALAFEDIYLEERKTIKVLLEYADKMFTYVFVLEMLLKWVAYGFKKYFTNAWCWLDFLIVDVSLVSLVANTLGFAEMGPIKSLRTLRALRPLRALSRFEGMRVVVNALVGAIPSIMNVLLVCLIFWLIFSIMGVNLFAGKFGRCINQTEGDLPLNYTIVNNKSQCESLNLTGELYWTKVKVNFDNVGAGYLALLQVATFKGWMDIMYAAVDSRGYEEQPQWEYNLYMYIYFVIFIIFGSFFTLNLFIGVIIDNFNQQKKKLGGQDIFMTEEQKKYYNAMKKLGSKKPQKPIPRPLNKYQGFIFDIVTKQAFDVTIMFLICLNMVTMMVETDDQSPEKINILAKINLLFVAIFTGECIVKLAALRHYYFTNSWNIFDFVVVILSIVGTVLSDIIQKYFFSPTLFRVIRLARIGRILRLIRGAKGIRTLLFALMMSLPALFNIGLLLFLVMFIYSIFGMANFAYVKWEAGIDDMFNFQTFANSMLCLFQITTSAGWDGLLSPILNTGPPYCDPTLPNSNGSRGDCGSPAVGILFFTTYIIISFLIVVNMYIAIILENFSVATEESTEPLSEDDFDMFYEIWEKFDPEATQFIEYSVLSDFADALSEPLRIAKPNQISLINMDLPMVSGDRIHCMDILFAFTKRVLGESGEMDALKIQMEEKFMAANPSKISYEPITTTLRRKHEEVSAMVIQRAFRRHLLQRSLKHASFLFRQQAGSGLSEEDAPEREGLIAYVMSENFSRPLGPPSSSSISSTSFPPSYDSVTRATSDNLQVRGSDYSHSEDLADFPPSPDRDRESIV
UniProt P35499, whole entry: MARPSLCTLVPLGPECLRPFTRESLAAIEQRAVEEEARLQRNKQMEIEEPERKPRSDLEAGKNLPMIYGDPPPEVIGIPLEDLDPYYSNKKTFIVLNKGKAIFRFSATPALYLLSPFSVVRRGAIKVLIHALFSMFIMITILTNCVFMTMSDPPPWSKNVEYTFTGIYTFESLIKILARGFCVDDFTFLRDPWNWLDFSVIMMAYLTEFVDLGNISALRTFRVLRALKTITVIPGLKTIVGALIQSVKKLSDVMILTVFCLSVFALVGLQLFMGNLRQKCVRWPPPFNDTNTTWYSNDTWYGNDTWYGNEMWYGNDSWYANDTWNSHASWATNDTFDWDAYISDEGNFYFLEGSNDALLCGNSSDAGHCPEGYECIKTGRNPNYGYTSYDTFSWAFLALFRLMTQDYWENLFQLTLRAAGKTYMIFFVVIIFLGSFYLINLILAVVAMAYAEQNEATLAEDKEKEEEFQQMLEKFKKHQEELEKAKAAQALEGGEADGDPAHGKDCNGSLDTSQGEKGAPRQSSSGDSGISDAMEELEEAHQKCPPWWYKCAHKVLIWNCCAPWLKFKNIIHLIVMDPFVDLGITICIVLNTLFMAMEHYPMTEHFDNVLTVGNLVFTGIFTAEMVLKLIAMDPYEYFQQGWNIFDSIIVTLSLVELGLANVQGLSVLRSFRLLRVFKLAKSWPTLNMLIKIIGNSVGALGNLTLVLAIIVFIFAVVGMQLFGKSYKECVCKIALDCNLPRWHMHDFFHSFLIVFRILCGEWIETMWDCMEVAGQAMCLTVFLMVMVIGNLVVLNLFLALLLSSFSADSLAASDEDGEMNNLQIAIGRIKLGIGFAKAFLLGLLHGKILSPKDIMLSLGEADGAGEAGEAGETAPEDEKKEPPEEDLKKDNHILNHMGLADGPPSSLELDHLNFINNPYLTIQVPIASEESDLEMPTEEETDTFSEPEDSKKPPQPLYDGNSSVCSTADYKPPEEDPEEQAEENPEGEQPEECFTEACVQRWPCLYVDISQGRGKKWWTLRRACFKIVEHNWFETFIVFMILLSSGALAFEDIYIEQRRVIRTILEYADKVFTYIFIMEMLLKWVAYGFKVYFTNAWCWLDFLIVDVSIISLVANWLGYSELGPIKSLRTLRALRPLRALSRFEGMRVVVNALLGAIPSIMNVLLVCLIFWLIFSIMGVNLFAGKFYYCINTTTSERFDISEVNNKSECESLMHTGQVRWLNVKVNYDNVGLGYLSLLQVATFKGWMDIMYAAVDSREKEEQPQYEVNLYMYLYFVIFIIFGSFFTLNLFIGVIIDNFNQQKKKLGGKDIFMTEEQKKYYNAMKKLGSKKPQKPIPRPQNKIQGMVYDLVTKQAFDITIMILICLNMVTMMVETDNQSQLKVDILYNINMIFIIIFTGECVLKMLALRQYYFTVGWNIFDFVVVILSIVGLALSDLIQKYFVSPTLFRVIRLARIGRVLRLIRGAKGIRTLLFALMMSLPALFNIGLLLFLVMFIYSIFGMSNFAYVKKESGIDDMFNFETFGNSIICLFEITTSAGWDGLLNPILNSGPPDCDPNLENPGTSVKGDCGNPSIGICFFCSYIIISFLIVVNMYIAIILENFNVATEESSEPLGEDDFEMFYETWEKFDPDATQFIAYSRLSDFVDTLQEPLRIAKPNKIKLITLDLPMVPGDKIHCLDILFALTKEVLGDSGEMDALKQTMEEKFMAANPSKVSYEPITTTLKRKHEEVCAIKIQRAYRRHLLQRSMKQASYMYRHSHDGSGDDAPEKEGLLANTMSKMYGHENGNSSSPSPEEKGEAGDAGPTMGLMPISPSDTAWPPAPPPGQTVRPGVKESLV

In PMC8740163, “Voltage-Gated Sodium Channel Modulation by a New Spider Toxin Ssp1a Isolated From an Australian Theraphosid” (Frontiers in Pharmacology, 2021):

Assays:
Assay type in all cases: cell-based
hNaV1.7 [1] = target: T1, hNaV1.7 (Homo sapiens, UniProt Q15858); assay: Voltage-dependent inhibition of hNaV1.7 at 0 and 50 mV test pulse; conditions: 255 nM (IC70) rSsp1a, n = 4, read-out: inhibition of hNaV1.7 channels at depolarisation to +50 mV
Experimental: The HEK293 cells stably expressing hNaV1.1–1.7/β1 and CHO cells stably expressing hNaV1.8/β3 were prepared following manufacturer’s guidelines. After 48 h of incubation to achieve ∼80% confluency, cells were detached using Detachin (Genlantis) and resuspended to 5 × 10^6 cells/mL in serum free media (CHO-cell SFM (Life Technologies), 25 mM HEPES and 100 U/mL penicillin/streptomycin). As hNaV1.8 expression in CHO cells is tetracycline inducible, the cells were further cultured for 24 h at 27°C in the presence of tetracycline (1 μg/ml). The electrophysiology experiments were conducted using the automated whole-cell patch clamp technology (QPatch 16X; Sophion Bioscience A/S, Ballerup, Denmark) as previously described ([Cardoso et al., 2015]; [Cardoso et al., 2017]) using QPlates with single patch hole/well for hNaV1.1–1.7 and 10 patch hole/well for hNaV1.8. The extracellular solution comprised (in mM) 1 CaCl2, 1 MgCl2, 5 HEPES, 3 KCl, 140 NaCl and 20 TEA-Cl with pH adjusted to 7.3 with NaOH. […] The mean seal resistance was 658 MΩ (95% confidence interval: 557–759 MΩ) while series resistance (Rs) was maintained below 10 MΩ with a mean for the last measured series resistance of 7 MΩ (95% confidence interval: 6.7–7.5 MΩ) with no compensation except for current-voltage experiments on hNaV1.2 and hNaV1.7, where fast Rs was compensated by 70%. […]

hNaV1.2 [2] = target: T2, hNaV1.2 (Homo sapiens, UniProt Q99250); assay: On-rate and off-rate, hNaV1.2
Experimental: (§1) The HEK293 cells stably expressing hNaV1.1–1.7/β1 and CHO cells stably expressing hNaV1.8/β3 were prepared following manufacturer’s guidelines. After 48 h of incubation to achieve ∼80% confluency, cells were detached using Detachin (Genlantis) and resuspended to 5 × 10^6 cells/mL in serum free media (CHO-cell SFM (Life Technologies), 25 mM HEPES and 100 U/mL penicillin/streptomycin). As hNaV1.8 expression in CHO cells is tetracycline inducible, the cells were further cultured for 24 h at 27°C in the presence of tetracycline (1 μg/ml). The electrophysiology experiments were conducted using the automated whole-cell patch clamp technology (QPatch 16X; Sophion Bioscience A/S, Ballerup, Denmark) as previously described ([Cardoso et al., 2015]; [Cardoso et al., 2017]) using QPlates with single patch hole/well for hNaV1.1–1.7 and 10 patch hole/well for hNaV1.8. The extracellular solution comprised (in mM) 1 CaCl2, 1 MgCl2, 5 HEPES, 3 KCl, 140 NaCl and 20 TEA-Cl with pH adjusted to 7.3 with NaOH. […] The mean seal resistance was 658 MΩ (95% confidence interval: 557–759 MΩ) while series resistance (Rs) was maintained below 10 MΩ with a mean for the last measured series resistance of 7 MΩ (95% confidence interval: 6.7–7.5 MΩ) with no compensation except for current-voltage experiments on hNaV1.2 and hNaV1.7, where fast Rs was compensated by 70%.
(§2) The voltage protocols to determine voltage-dependence of activation and fast inactivation were combined, with cells held at −90 mV for 150 ms followed by step pulses from −110 mV to +75 mV in 5 mV increments to elicit the Na^+ currents and determine voltage-dependence of activation. […] For on-rate experiments, cells were maintained at a holding potential −80 mV and Na^+ currents elicited by 20 ms voltage steps to 0 mV from a −120 mV conditioning pulse applied for 200 ms at 10 s interval for 300 s after addition of rSsp1a at 1x, 3x and 10x its IC50 at each hNaV subtype analysed. […] The off-rate (koff) and dissociation constant (Kd) values at three hNaV subtypes were calculated using koff = 1/τoff (s^−1) and Kd = koff/kon (nM). […]

hNaV1.1 = hNaV1.1 (Homo sapiens, UniProt P35498); assay: Automated whole-cell patch clamp (QPatch 16X), hNaV1.1; conditions: HEK293 hNaV1.1/β1; holding −80 mV, 20 ms step to 0 mV from −120 mV (200 ms); 2 min incubation; mean ± SEM (n = 4–12)
Experimental: (§3) Cell culture reagents were from Life Technologies Corporation, CA, United States, unless otherwise stated. The human neuroblastoma cell line SHSY5Y was cultured in Roswell Park Memorial Institute (RPMI) medium supplemented with 15% fetal bovine serum (FBS) and 2 mM L-glutamine. Human embryonic kidney 293 (HEK293) cells stably expressing recombinant hNaV1.1–1.7 and the β1 auxiliary subunit (Scottish Biomedical Drug Discovery, Glasgow, United Kingdom) was cultured in Minimal Essential medium (MEM) (Sigma-Aldrich, MO, United States) supplemented with 10% v/v FBS-New Zealand origin (Assay Matrix), 2 mM L-glutamine and selection antibiotics as per manufacturer’s recommendation. Chinese hamster ovary (CHO) cells stably expressing hNaV1.8/β3 (ChanTest, Cleveland, United States) were cultured in MEM containing 10% v/v FBS and selection antibiotics as per manufacturer’s recommendation. […]
(§4) The HEK293 cells stably expressing hNaV1.1–1.7/β1 and CHO cells stably expressing hNaV1.8/β3 were prepared following manufacturer’s guidelines. […] The mean seal resistance was 658 MΩ (95% confidence interval: 557–759 MΩ) while series resistance (Rs) was maintained below 10 MΩ with a mean for the last measured series resistance of 7 MΩ (95% confidence interval: 6.7–7.5 MΩ) with no compensation except for current-voltage experiments on hNaV1.2 and hNaV1.7, where fast Rs was compensated by 70%. […]

hNaV1.8 = hNaV1.8 (Homo sapiens, UniProt Q9Y5Y9); assay: Automated whole-cell patch clamp (QPatch 16X), hNaV1.8 in CHO cells
Experimental: as §3, §4

hNaV1.5 = hNaV1.5 (Homo sapiens, UniProt Q14524); assay: Automated whole-cell patch clamp (QPatch 16X), hNaV1.5
Experimental: as §3, §4

hNaV1.4 = hNaV1.4 (Homo sapiens, UniProt P35499); assay: Automated whole-cell patch clamp (QPatch 16X), hNaV1.4
Experimental: as §3, §4

hNaV1.3 [3] = target: T3, hNaV1.3 (Homo sapiens, UniProt Q9NY46); assay: Automated whole-cell patch clamp (QPatch 16X), hNaV1.3; conditions: HEK293 hNaV1.3/β1; holding −80 mV, 20 ms step to 0 mV from −120 mV (200 ms); 2 min incubation; mean ± SEM (n = 4–12)
Experimental: as §3, §4

hNaV1.7 [4] = target: T1, hNaV1.7; assay: Automated whole-cell patch clamp (QPatch 16X), hNaV1.7; conditions: HEK293 hNaV1.7/β1; holding −80 mV, 20 ms step to 0 mV from −120 mV (200 ms); 2 min incubation; mean ± SEM (n = 4–12)
Experimental: as §3, §4

hNaV1.3 [5] = target: T3, hNaV1.3; assay: On-rate and off-rate, hNaV1.3
Experimental: as §1, §2

hNaV1.3 [6] = target: T3, hNaV1.3; assay: Voltage-dependence of activation and steady-state fast inactivation, hNaV1.3; conditions: rSsp1a 500 nM (panel hNaV1.3; legend prints hNaV1.4); peak current reduced; mean ± SEM, n = 3–4
Experimental: (§5) The HEK293 cells stably expressing hNaV1.1–1.7/β1 and CHO cells stably expressing hNaV1.8/β3 were prepared following manufacturer’s guidelines. After 48 h of incubation to achieve ∼80% confluency, cells were detached using Detachin (Genlantis) and resuspended to 5 × 10^6 cells/mL in serum free media (CHO-cell SFM (Life Technologies), 25 mM HEPES and 100 U/mL penicillin/streptomycin). As hNaV1.8 expression in CHO cells is tetracycline inducible, the cells were further cultured for 24 h at 27°C in the presence of tetracycline (1 μg/ml). […] The mean seal resistance was 658 MΩ (95% confidence interval: 557–759 MΩ) while series resistance (Rs) was maintained below 10 MΩ with a mean for the last measured series resistance of 7 MΩ (95% confidence interval: 6.7–7.5 MΩ) with no compensation except for current-voltage experiments on hNaV1.2 and hNaV1.7, where fast Rs was compensated by 70%.
(§6) The voltage protocols to determine voltage-dependence of activation and fast inactivation were combined, with cells held at −90 mV for 150 ms followed by step pulses from −110 mV to +75 mV in 5 mV increments to elicit the Na^+ currents and determine voltage-dependence of activation. […] The calculated kobs were plotted against their corresponding concentration to obtain a linear curve-fit where the slope of the curve represented the actual kon ([Dowling and Charlton, 2006]; [Pierre, 2011]). […]

hNaV1.7 [7] = target: T1, hNaV1.7; assay: On-rate and off-rate, hNaV1.7
Experimental: as §1, §2

hNaV1.7 [8] = target: T1, hNaV1.7; assay: Effect of strong depolarizations on rSsp1a-bound hNaV1.7; conditions: +160 mV; 2 μM rSsp1a; modified solutions; n = 5
hNaV1.7 [9] = target: T1, hNaV1.7; assay: Voltage-dependence of activation and steady-state fast inactivation, hNaV1.7; conditions: rSsp1a 130 nM, peak current reduced, mean ± SEM, n = 3–4
Experimental: as §5, §6

hNaV1.2 [10] = target: T2, hNaV1.2; assay: Automated whole-cell patch clamp (QPatch 16X), hNaV1.2; conditions: HEK293 hNaV1.2/β1; holding −80 mV, 20 ms step to 0 mV from −120 mV (200 ms); 2 min incubation; mean ± SEM (n = 4–12)
Experimental: as §3, §4

hNaV1.2 [11] = target: T2, hNaV1.2; assay: Voltage-dependence of activation and steady-state fast inactivation, hNaV1.2; conditions: rSsp1a 250 nM, peak current reduced, mean ± SEM, n = 3–4
Experimental: as §5, §6

[12] = slope of kobs vs concentration (three concentrations)
[13] = whole-cell automated patch clamp

For `CC(C)C[C@H](NC(=O)[C@H](CC(=O)O)NC(=O)[C@H](Cc1ccc(O)cc1)NC(=O)[C@H](CCCNC(=N)N)NC(=O)[C@@H]1CSSC[C@@H]2NC(=O)[C@H](CCCCN)NC(=O)[C@H](CC(N)=O)NC(=O)[C@H](CC(N)=O)NC(=O)[C@H](CC(N)=O)NC(=O)[C@@H]3CCCN3C(=O)[C@H](CC(=O)O)NC(=O)[C@@H]3CSSC[C@H](NC(=O)[C@H](C(C)C)NC(=O)[C@H](Cc4ccc(O)cc4)NC(=O)CNC(=O)[C@H](CCC(=O)O)NC(=O)[C@H](CSSC[C@H](NC(=O)[C@H](CC(=O)O)NC(=O)CN)C(=O)N[C@@H](CC(C)C)C(=O)NCC(=O)N[C@@H](Cc4c[nH]c5ccccc45)C(=O)N[C@@H](Cc4ccccc4)C(=O)N[C@@H](CO)C(=O)NCC(=O)N3)NC2=O)C(=O)N[C@@H](Cc2c[nH]cn2)C(=O)N[C@@H](Cc2c[nH]c3ccccc23)C(=O)N[C@@H](CCCCN)C(=O)N[C@@H](Cc2ccc(O)cc2)C(=O)N2CCC[C@H]2C(=O)N[C@@H](Cc2c[nH]c3ccccc23)C(=O)N1)C(=O)O` [rSsp1a], the inhibition at 0.255 µM (hNaV1.7 [1]) was roughly 40%, the “channels recovering from block after washout” value (from here on “channels recovering from block”) (hNaV1.2 [2]; 250 nM, 30-min washout, n = 6) was roughly 25% and the koff (hNaV1.2 [2]; koff = 1/τoff, 250 nM, 5 min incubation, 30 min washout, n = 6) was 0.000298 s⁻¹. The kon (hNaV1.2 [2]; [12]) was 15300 M⁻¹ s⁻¹, the IC50 (hNaV1.1) was 674 ± 104 nM and the IC50 (hNaV1.8; CHO hNaV1.8/β3, holding −90 mV, 50 ms step to +10 mV from −90 mV (150 ms), n = 4–12) was greater than 9000 nM. The “activity at hNaV1.8 (discussion)” value (hNaV1.8; [13]) was “inactive”, the “block of hNaV1.5 current” value (hNaV1.5; 3 μM rSsp1a, HEK293) was roughly 60% and the IC50 (hNaV1.5; HEK293 hNaV1.5/β1, holding −80 mV, 20 ms step to 0 mV from −120 mV (200 ms), 2 min incubation, n = 4–12) was greater than 3000 nM. For the same molecule, the IC50 (hNaV1.4; HEK293 hNaV1.4/β1, holding −80 mV, 20 ms step to 0 mV from −120 mV (200 ms), 2 min incubation, n = 4–12) was greater than 3000 nM, the “activity at hNaV1.4 (discussion)” value (hNaV1.4; [13]) was “inactive” and the IC50 (hNaV1.3 [3]) was 547 ± 70 nM. For the same molecule, the IC50 (hNaV1.7 [4]) was 134 ± 9 nM, the “channels recovering from block” value (hNaV1.3 [5]; 500 nM, 30-min washout, n = 6) was roughly 50% and the koff (hNaV1.3 [5]; koff = 1/τoff, 500 nM, 5 min incubation, 30 min washout, n = 6) was 0.000413 s⁻¹. For the same molecule, the kon (hNaV1.3 [5]; [12]) was 11200 M⁻¹ s⁻¹, the “current-voltage relationship, effect of ~IC50 rSsp1a” value (shortened to “current-voltage relationship, effect”) (hNaV1.3 [6]) was “without significantly affecting the activation threshold, activation voltage and reversal potential” and the “channels recovering from block” value (hNaV1.7 [7]; 130 nM, 30-min washout, n = 4) was roughly 40%. The koff (hNaV1.7 [7]; koff = 1/τoff, 130 nM, 5 min incubation, 30 min washout, n = 4) was 0.000393 s⁻¹, the kon (hNaV1.7 [7]; [12]) was 17500 M⁻¹ s⁻¹ and the “outward current of rSsp1a-bound hNaV1.7 relative to before rSsp1a” value (hNaV1.7 [8]) was roughly 21%. For the same molecule, the “current-voltage relationship, effect” value (hNaV1.7 [9]) was “without significantly affecting the activation threshold, activation voltage and reversal potential”, the IC50 (hNaV1.2 [10]) was 239 ± 26 nM and the “current-voltage relationship, effect” value (hNaV1.2 [11]) was “without significantly affecting the activation threshold, activation voltage and reversal potential”.
